Drawing on PubChem BioAssay AID493087 (The Scripps Research Institute Molecular Screening Center, 2011), this text covers activation for two compounds.

Protein sequences, listed by entry. Tags and fused reporters are not part of them.
UniProt P14735, whole entry: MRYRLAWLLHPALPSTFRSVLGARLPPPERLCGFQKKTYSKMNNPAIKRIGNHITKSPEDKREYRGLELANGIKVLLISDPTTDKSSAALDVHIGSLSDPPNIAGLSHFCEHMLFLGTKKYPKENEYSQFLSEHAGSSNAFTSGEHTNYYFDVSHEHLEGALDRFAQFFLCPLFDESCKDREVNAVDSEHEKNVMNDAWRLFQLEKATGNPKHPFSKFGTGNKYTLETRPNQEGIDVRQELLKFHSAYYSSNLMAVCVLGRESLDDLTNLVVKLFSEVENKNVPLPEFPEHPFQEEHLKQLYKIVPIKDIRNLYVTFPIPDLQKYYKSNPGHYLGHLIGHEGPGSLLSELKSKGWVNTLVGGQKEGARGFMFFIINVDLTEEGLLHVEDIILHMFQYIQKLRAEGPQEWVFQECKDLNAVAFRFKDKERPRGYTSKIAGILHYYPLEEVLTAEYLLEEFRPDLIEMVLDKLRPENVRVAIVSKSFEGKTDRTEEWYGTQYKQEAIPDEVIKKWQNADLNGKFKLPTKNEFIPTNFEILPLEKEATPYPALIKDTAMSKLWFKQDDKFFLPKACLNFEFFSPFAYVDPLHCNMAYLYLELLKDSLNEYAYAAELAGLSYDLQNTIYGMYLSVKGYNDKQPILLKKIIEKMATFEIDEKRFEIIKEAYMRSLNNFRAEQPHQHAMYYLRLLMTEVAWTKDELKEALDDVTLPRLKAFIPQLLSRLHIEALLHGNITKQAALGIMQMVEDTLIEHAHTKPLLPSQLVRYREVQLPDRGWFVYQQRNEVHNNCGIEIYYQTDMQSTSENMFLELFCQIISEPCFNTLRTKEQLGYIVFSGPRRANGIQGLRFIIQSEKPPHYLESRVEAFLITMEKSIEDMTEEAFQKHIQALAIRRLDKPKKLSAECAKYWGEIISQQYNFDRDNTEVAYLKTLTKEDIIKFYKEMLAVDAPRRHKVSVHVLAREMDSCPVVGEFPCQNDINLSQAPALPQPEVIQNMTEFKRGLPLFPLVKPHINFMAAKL

Molecules are shown by their SMILES. The entries are a selection whose mix differs from that of the whole data set. Calls of active or inactive are those of the source.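 Rule for the calls: active = activation above the mean of all tested compounds plus 3 SD, set per screening campaign (cut at about 17% in these data); inactive = the rest.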

The target of this assay is Insulin-degrading enzyme (Homo sapiens) (UniProt P14735). Description: human IDE activators in live cells, primary screen, fluorescence polarization, HEK cells, FAbeta-B substrate (AID 493087). The settings on record: FAbeta-B cleavage, at 5.96 µM, active compounds read high, 0% vehicle, 100% cell-free pure enzyme wells. Background: Fluorescence polarisation rises when a labelled molecule tumbles more slowly, as on binding a larger partner.
In the case of `CCC(=O)N(c1ccccc1)C1(COC)CCN(CCc2cccs2)CC1`, the activation is inactive: 6.04%.

In the case of `CCC(=O)N(c1ccccc1)C1(COC)CCN(CCn2nnn(CC)c2=O)CC1`, the activation is inactive: 3.68%.
